Biological target: human LPAR1 (Homo sapiens (Human), UniProt Q92633)
Experiment: LPAR1 intracellular calcium mobilization assay (antagonist mode, FLIPR)
Details: read-out: LPAR1 (EC50; nM), CHO-K1 EDG2 cells expressing human LPAR1, LPA 18:2 at EC80 (100 nM), test compound 0.5 nM to 10 μM
Procedure: In vitro LPAR1 activity was measured in an intracellular calcium mobilization assay.
CHO-K1 EDG2 cells (DiscoverX cat #93-0644C2) expressing human LPAR1 (NM_001401.3) were seeded in a total volume of 25 μL of Dulbecco's Modification of Eagle's Medium (DMEM) with 10% Fetal Bovine Serum, 1× PenStrepGlutamine, 300 μg/ml Hygromycin, and 800 μg/ml G418 into 384-well tissue culture plate (Grenier #781091) at 15,000 cells/well and incubated at 37° C. overnight. Prior to testing, 25 μL Calcium Loading Dye Component A (FLIPR Calcium 6 Assay Kit Molecular Device #R8190) and 2.5 mM Probenecid (Invitrogen #P36400, prepared fresh) in Hank's Balanced Salt Solution (Corning #21-023-CV), 20 mM HEPES (Corning #25-060-CI), 0.1% Bovine Serum Albumin (Sigma-Aldrich #A7906-500G) was add to the cells for 60 minutes at 37° C.
Agonist dose curves of LPA 18:2 (Avanti Polar Lipids cat #857138, 0.5 nM to 10 μM) were recorded to determine the LPA 18:2 EC80 for subsequent antagonist assays. […] Calcium mobilization was monitored for 5 min and 10 μL 6×LPA in HBSS/20 mM Hepes/0.1% bovine serum albumin (BSA) was added to the cells 5 seconds into the assay.
[…] . […] Antagonist activity was measured on a FLIPR Tetra. Calcium mobilization was monitored for 3.5 minutes and 10 μL 6× EC80 LPA in HBSS, 20 mM HEPES, and 0.1% BSA was added to the cells 5 seconds into the assay. […]

Sequences of proteins named here, by UniProt entry; tags and fusion partners are left off.
UniProt Q92633, whole entry: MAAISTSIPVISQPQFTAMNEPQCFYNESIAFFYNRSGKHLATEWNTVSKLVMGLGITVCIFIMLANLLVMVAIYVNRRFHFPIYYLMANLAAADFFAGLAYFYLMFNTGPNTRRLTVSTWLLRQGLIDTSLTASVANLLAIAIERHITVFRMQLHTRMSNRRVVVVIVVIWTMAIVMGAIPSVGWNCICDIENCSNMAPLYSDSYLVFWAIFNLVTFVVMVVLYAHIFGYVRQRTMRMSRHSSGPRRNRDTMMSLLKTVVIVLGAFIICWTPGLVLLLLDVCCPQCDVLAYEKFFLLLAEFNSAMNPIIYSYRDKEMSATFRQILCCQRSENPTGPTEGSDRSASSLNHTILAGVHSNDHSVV

Compound	EC50 [nM]
C[C@@H](OC(=O)Nc1c(-c2ccc(NC(=O)c3cncnc3)cn2)nnn1C)c1cc(F)cnc1F	190
C[C@@H](OC(=O)Nc1c(-c2ccc(NC(=O)c3ccnc(Cl)c3)cn2)nnn1C)c1cccnc1F	27.3
